The subject of this assay is B16.mOVA cells. The experiment in a line: Vaccine-mediated protection against melanoma tumor challenge. The conditions noted are these: 25 μg OVA s.c., challenge with 10^4 B16.mOVA cells 7 days later.

Where only a bound is given, the exact number is not on record here.

“OVA: protein antigen OVA used as model antigen, alone”: the “time by which all mice succumbed to disease as a result of tumour formation” value is at most 25 days.

Values taken from patent US20170274068A1, “IMMUNOLOGICAL REAGENT” (priority 2014, published 2017).
